Experiment [1] relates to wild-type strain (DOT-T1E). As to conditions: 6, 9, 12 or 15 g/L pHBA; after 50 h of incubation.
The next experiment relates to DOT-T1E. As to conditions: glucose plates with 0, 3, 6 or 9 g/L pHBA.

On to `O=C(O)c1ccc(O)cc1` [pHBA, p-hydroxybenzoic acid], for which the “cell density after pHBA shock” value in experiment [1] is ≥ 10^9 CFU/mL. Besides, the “colony formation on pHBA plates” value with DOT-T1E is recorded as “formed colonies in all plates”.
